Ki, EC50 and ED50 data for 22 compounds are collected here from ChEMBL document CHEMBL4840326, “Discovery of an M-Substituted N-Cyclopropylmethyl-7α-phenyl-6,14-endoethanotetrahydronorthebaine as a Selective, Potent, and Orally Active κ-Opioid Receptor Agonist with an Improved Central Nervous System Safety Profile” (2021).

Broadly, the Ki is a measure of affinity in units of concentration, obtained from inhibition or displacement. A lower Ki goes with a stronger hold on the target. The term EC50 denotes the concentration needed to bring the measured effect to its halfway point. Usually ED50 stands for the dose that gives a 50% effect, or the effect in half of the subjects.

One assay deals with Mu-type opioid receptor (Rattus norvegicus, UniProt P33535). Briefly: Displacement of [3H]DAMGO from rat mu opioid receptor expressed in CHO cell membrane measured after 30 mins by liquid scintillation counting method.
Assay [1] has as its target T1, Kappa-type opioid receptor (Homo sapiens, UniProt P41145). Briefly: Displacement of [3H]U69,593 from human kappa opioid receptor expressed in CHO cell membrane measured after 30 mins by liquid scintillation counting method. On the technique in general: Displacement assays read how much labelled ligand stays bound in the presence of the test substance.
The target in assay [2] is T2, Delta-type opioid receptor (Rattus norvegicus, UniProt P33533). Briefly: Displacement of [3H]DPDPE from rat delta opioid receptor expressed in CHO cell membrane measured after 30 mins by liquid scintillation counting method.
Assay [3] has as its target T2, Delta-type opioid receptor. Briefly: Agonist activity at rat delta opioid receptor expressed in CHO cell membrane incubated for 1 hr by [35S]GTPgammaS binding based liquid scintillation counting method.
The target of assay [4] is T1, Kappa-type opioid receptor. Briefly: Agonist activity at human kappa opioid receptor expressed in CHO cell membrane incubated for 1 hr by [35S]GTPgammaS binding based liquid scintillation counting method.
The test system of assay [5] is Mus musculus. Briefly: Antinociceptive activity in ip dosed Kunming mouse measured after 3.5 to 4 hrs by hot plate test. To be noted: time 3.5-4 hrs. For orientation: Hot-plate and tail-flick tests time the reaction to a heat stimulus.
In assay [6] the test system is Mus musculus. Description: Antinociceptive activity in ip dosed Kunming mouse assessed as reduction in acetic acid induced writhing signs measured after 3.5 to 4 hrs by abdominal constriction test. To be noted: time 3.5-4 hrs. A general note: In writhing tests, fewer writhes than in controls are read as antinociception.

Each structure is given as a SMILES string.

On to `COc1ccc2c3c1O[C@H]1[C@@]4(OC)CC[C@@]5(C[C@@H]4c4cccc(NCc6ccc(OCC7CCC7)cc6)c4)[C@@H](C2)N(CC2CC2)CC[C@]315`, for which the Ki at Mu-type opioid receptor came to 41.4 nM; in assay [1], 224 nM; in assay [2] it was 829 nM.

`COc1ccc2c3c1O[C@H]1[C@@]4(OC)CC[C@@]5(C[C@@H]4c4cccc(NCC6CC6)c4)[C@@H](C2)N(CC2CC2)CC[C@]315`: the values for the Ki (on Mu-type opioid receptor; in assay [1]; in assay [2]) were 501 nM, 6 nM and 524 nM, respectively. For the same compound, the figures for the EC50 in assay [3] and in assay [4] were 844 nM and 60.2 nM, respectively.

Consider `COc1ccc2c3c1O[C@H]1[C@@]4(OC)CC[C@@]5(C[C@@H]4c4cccc(NCc6ccc(OC(F)(F)F)cc6)c4)[C@@H](C2)N(CC2CC2)CC[C@]315`, for which the values for the Ki (at Mu-type opioid receptor; in assay [1]) were 267 nM and 423 nM, respectively.

As to `COc1ccc2c3c1O[C@H]1[C@@]4(OC)CC[C@@]5(C[C@@H]4c4cccc(NCc6ccc(C(F)(F)F)cc6)c4)[C@@H](C2)N(CC2CC2)CC[C@]315`, the Ki at Mu-type opioid receptor was 1580 nM; in assay [1] it was 51 nM; in assay [2] it was greater than 5000 nM.

Consider `COc1ccc2c3c1O[C@H]1[C@@]4(OC)CC[C@@]5(C[C@@H]4c4cccc(NCc6ccc(OC(C)=O)cc6)c4)[C@@H](C2)N(CC2CC2)CC[C@]315`, for which the Ki at Mu-type opioid receptor was found to be 92.2 nM; in assay [1], 13.9 nM; in assay [2], 612 nM.

With `COc1ccc2c3c1O[C@H]1[C@@]4(OC)CC[C@@]5(C[C@@H]4c4cccc(NCc6ccc(Cl)nc6)c4)[C@@H](C2)N(CC2CC2)CC[C@]315`, the inhibitory constant (Ki) stood at 237 nM at Mu-type opioid receptor, 8 nM in assay [1] and 268 nM in assay [2].

In the case of `CNc1cccc([C@H]2C[C@@]34CC[C@]2(OC)[C@@H]2Oc5c(OC)ccc6c5[C@@]23CCN(CC2CC2)[C@@H]4C6)c1`, the Ki at Mu-type opioid receptor turned out to be 211 nM; in assay [1], 61 nM; in assay [2], 179 nM.

`COc1ccc(C(=O)Nc2cccc([C@H]3C[C@@]45CC[C@]3(OC)[C@@H]3Oc6c(OC)ccc7c6[C@@]34CCN(CC3CC3)[C@@H]5C7)c2)cc1`: the Ki came to 52.7 nM on Mu-type opioid receptor, 268 nM in assay [1] and 5720 nM in assay [2].

Take `COc1ccc2c3c1O[C@H]1[C@@]4(OC)CC[C@@]5(C[C@@H]4c4cccc(NCc6ccc(OCC7CC7)cc6)c4)[C@@H](C2)N(CC2CC2)CC[C@]315`: the values for the Ki (at Mu-type opioid receptor; in assay [1]; in assay [2]) were 368 nM, 200 nM and greater than 10000 nM, respectively.

On to `COc1ccc2c3c1O[C@H]1[C@@]4(OC)CC[C@@]5(C[C@@H]4c4cccc(NCc6ccc(O)cc6)c4)[C@@H](C2)N(CC2CC2)CC[C@]315`, for which the Ki at Mu-type opioid receptor was found to be 52.8 nM; in assay [1], 16.1 nM; in assay [2], 1100 nM.

As for `COc1ccc2c3c1O[C@H]1[C@@]4(OC)CC[C@@]5(C[C@@H]4c4cccc(NCc6ccc(N)cc6)c4)[C@@H](C2)N(CC2CC2)CC[C@]315`, the Ki on Mu-type opioid receptor came to 30.5 nM; in assay [1], 6.6 nM; in assay [2], 662 nM.

Take `COc1ccc2c3c1O[C@H]1[C@@]4(OC)CC[C@@]5(C[C@@H]4c4cccc(NCc6ccc([N+](=O)[O-])cc6)c4)[C@@H](C2)N(CC2CC2)CC[C@]315`: the Ki on Mu-type opioid receptor was 48.2 nM; in assay [1] it was 48.7 nM; in assay [2], 1860 nM.

Turning to `COc1ccc2c3c1O[C@H]1[C@@]4(OC)CC[C@@]5(C[C@@H]4c4cccc(NCC(O)COc6cccc7[nH]c8ccccc8c67)c4)[C@@H](C2)N(CC2CC2)CC[C@]315` (stereo partly specified), the Ki was 1500 nM on Mu-type opioid receptor, 93.8 nM in assay [1] and 3000 nM in assay [2].

Turning to `COc1ccc2c3c1O[C@H]1[C@@]4(OC)CC[C@@]5(C[C@@H]4c4cccc(NC(=O)c6ccc(C)c(C)c6)c4)[C@@H](C2)N(CC2CC2)CC[C@]315`, the Ki at Mu-type opioid receptor was determined as 375 nM; in assay [1], 37.4 nM; in assay [2], 1370 nM.

Regarding `COc1cccc(CNc2cccc([C@H]3C[C@@]45CC[C@]3(OC)[C@@H]3Oc6c(OC)ccc7c6[C@@]34CCN(CC3CC3)[C@@H]5C7)c2)c1`, the Ki at Mu-type opioid receptor worked out at 37.6 nM; in assay [1] it was 11.7 nM; in assay [2], 2250 nM.

As for `COc1ccc2c3c1O[C@H]1[C@@]4(OC)CC[C@@]5(C[C@@H]4c4cccc(N)c4)[C@@H](C2)N(CC2CC2)CC[C@]315`, the Ki at Mu-type opioid receptor came to 69 nM; in assay [1], 13.7 nM; in assay [2], 85.6 nM.

Consider `COc1ccc2c3c1O[C@H]1[C@@]4(OC)CC[C@@]5(C[C@@H]4c4cccc(NCC6CCC6)c4)[C@@H](C2)N(CC2CC2)CC[C@]315`, for which the values for the Ki (at Mu-type opioid receptor; in assay [1]; in assay [2]) were 38.8 nM, 7.2 nM and 624 nM, respectively.

As for `COc1ccc2c3c1O[C@H]1[C@@]4(OC)CC[C@@]5(C[C@@H]4c4cccc(NCc6ccccc6)c4)[C@@H](C2)N(CC2CC2)CC[C@]315`, the Ki is greater than 5000 nM on Mu-type opioid receptor, 207 nM in assay [1] and greater than 10000 nM in assay [2].

With `COc1ccc(CNc2cccc([C@H]3C[C@@]45CC[C@]3(OC)[C@@H]3Oc6c(OC)ccc7c6[C@@]34CCN(CC3CC3)[C@@H]5C7)c2)cc1`, the ED50 with Mus musculus [5] amounted to 0.1 mg/kg; in the assay on Mus musculus [6] it was 0.2 mg/kg. For the same compound, the Ki on Mu-type opioid receptor was 1880 nM; in assay [1] it was 7.1 nM; in assay [2], 440 nM. The EC50 was found to be 810 nM in assay [3] and 4.3 nM in assay [4].

Take `COc1ccc2c3c1O[C@H]1[C@@]4(OC)CC[C@@]5(C[C@@H]4c4cccc(NCc6ccc(F)cc6)c4)[C@@H](C2)N(CC2CC2)CC[C@]315`: the Ki on Mu-type opioid receptor was determined as 34.5 nM; in assay [1], 9.8 nM; in assay [2] it was 443 nM.

For `COc1ccc2c3c1O[C@H]1[C@@]4(OC)CC[C@@]5(C[C@@H]4c4cccc(NC(=O)c6ccccc6)c4)[C@@H](C2)N(CC2CC2)CC[C@]315`, the Ki on Mu-type opioid receptor was 372 nM; in assay [1], 46.5 nM; in assay [2], 446 nM.

As to `COc1ccc2c3c1O[C@H]1[C@@]4(OC)CC[C@@]5(C[C@@H]4c4cccc(NC(=O)C6CC6)c4)[C@@H](C2)N(CC2CC2)CC[C@]315`, the figures for the Ki (on Mu-type opioid receptor; in assay [1]; in assay [2]) were 143 nM, 243 nM and 458 nM, respectively.
